Target: Thrombin (Homo sapiens, UniProt P00734)
Experiment: Thrombin inhibition assay (Sigma Thrombin Inhibitor Screening Kit MAK243)
Details: 80 μM peptide (screening grade, mixture of diastereomers), 15 min preincubation with thrombin at room temperature, AMC-based peptide substrate, 37 °C, 30 min incubation, fluorescence Ex/Em 350/450 nm, 384-well; replicate 1 of 2

Percent thrombin inhibition, 1st run: 100%
Substance: PPACK [reference compound]

Source: publication PMC8317666, “Combining flavin photocatalysis with parallel synthesis: a general platform to optimize peptides with non-proteinogenic amino acids” (Chemical Science, 2021)
